Assay results: US11401278B2, “Macrocyclic indole derivatives” (The Broad Institute, Inc., priority 2017, dated 2022)
Several values for one entry are separate records, joined by “and”; a condition that tells them apart may be missing. Equal entries are not always repeated.

How the values were obtained:
AMO-1 = assay: Antiproliferation assay (Assay 7), AMO-1; settings: read-out: Antiproli AMO-1 [M] IC50, CellTiter-Glo, 72 hours, several values per example
Procedure: (§1) Assessment of the Anti-Proliferative Effect of Compounds in Different Cell Lines
(§2) The impact of compounds on the proliferation of different cell lines was assessed using the CellTiter-Glo® Luminescent Cell Viability reagent from Promega (G7573).
(§3) The different cell lines were plated in culture medium (RPMI 1640 [Biochrom; #FG 1215] supplemented with 10% Fetal Calf Serum [Biochrom; #S 0415]) at a density of 3,300 cells (for suspension cells) or 800 cells (for adherent cells) in 30 μl/well in a sterile, solid black, flat bottom, polystyrene, TC-treated 384-well microplate (Corning #3571) using Multidrop Combi Reagent Dispenser. In parallel, cells were plated in a reference (day 0) plate for time zero determination. […]
(§4) On the next day, cells were treated with compounds (stock solution, 10 mM in DMSO) using the HP D300 Digital Dispenser in a concentration range of 3.3×10e-5 M (33 μM) to 5×10e-9 M (5 nM) in a single-dot curve with at least 16 dilutions and a DMSO concentration of 0.33%. […] The day 0 plate was measured by adding 30 μL/well of CTG solution (CellTiter-Glo® Luminescent Cell Viability reagent, Promega G7573) to time zero wells in the reference plate followed by a 10 minutes incubation and luminescence reading at 0.1 ms. using the PHERAstar FS microplate reader (BMG Labtech).
(§5) After 72 hours incubation, the treated plates were measured in the same way as the day 0 plate mentioned above. […]

SUDHL5 [1] = assay: Induction of caspase-3/7 activity (Assay 4), SUDHL5; settings: read-out: Caspase SUDHL5 [M] (median) EC50, caspase-3/7 induction, 3 hours
Procedure: Cellular Assays Assay 4 Induction of Caspase-3/7 Activity Upon Treatment of Cells with Selected Compounds
The BH3-domain of MCL-1 sequesters pro-apoptotic proteins, thereby inhibiting apoptosis. In contrast, MCL-1 inhibitors are expected to antagonize this effect leading to an increase in apoptosis, which can be determined by measuring the activity of caspase-3/7.
The activity of caspase-3/7 was determined in DLBCL (Diffuse large B-cell lymphoma) cell lines (SUDHL5 and SUDHL10) upon treatment with different compounds, using the Caspase-Glo® 3/7 reagent from Promega (G8092).
The different cell lines were plated in culture medium (RPMI 1640 [GIBCO #22400-089] supplemented with 10% Fetal Bovine Serum) at a density of 3,300 cells in 30 μl/well in a sterile, solid black, flat bottom, polystyrene, TC-treated 384-well microplate (Corning #3571) using Multidrop Combi Reagent Dispenser. […]
On the next day, the cells were treated with compounds (stock solution, 10 mM in DMSO) using the HP D300 Digital Dispenser in a concentration range of 3.3×10e-5 M (33 μM) to 5×10e-9 M (5 nM) in a single-dot curve with at least 16 dilutions and a DMSO concentration of 0.33%. […] Finally, luminescence was read at 0.1 ms, with a gain of 3000 using the PHERAstar FS microplate reader (BMG Labtech).
For the evaluation of the results, the background measured with “medium-only” was subtracted from all other values. […]

SUDHL5 [2] = assay: Antiproliferation assay (Assay 7), SUDHL5; settings: read-out: Antiproli SUDHL5 [M] (median) IC50, CellTiter-Glo, 72 hours
Procedure: as §1, §2, §3, §4, §5

CCc1c2c(nn1C)CNS(=O)(=O)CCCn1c(C(=O)O)c(CCCOc3cccc4cc(F)ccc34)c3ccc(Cl)c-2c31
IC50 (AMO-1): 1e-06 M and 8.2e-07 M | EC50 (SUDHL5 [1]): 1.5e-06 M | IC50 (SUDHL5 [2]): 6.9e-06 M
